Laboratory results taken from patent US20250228832A1, “METHODS FOR TREATING DISORDERS AMELIORATED BY MUSCARINIC RECEPTOR ACTIVATION” (KARUNA THERAPEUTICS, INC., priority 2022, published 2025).

Sequences of proteins named here, by UniProt entry; tags and fusion partners are left off. A change or cut given only in a name is not applied to a line headed by its entry.
UniProt P11229: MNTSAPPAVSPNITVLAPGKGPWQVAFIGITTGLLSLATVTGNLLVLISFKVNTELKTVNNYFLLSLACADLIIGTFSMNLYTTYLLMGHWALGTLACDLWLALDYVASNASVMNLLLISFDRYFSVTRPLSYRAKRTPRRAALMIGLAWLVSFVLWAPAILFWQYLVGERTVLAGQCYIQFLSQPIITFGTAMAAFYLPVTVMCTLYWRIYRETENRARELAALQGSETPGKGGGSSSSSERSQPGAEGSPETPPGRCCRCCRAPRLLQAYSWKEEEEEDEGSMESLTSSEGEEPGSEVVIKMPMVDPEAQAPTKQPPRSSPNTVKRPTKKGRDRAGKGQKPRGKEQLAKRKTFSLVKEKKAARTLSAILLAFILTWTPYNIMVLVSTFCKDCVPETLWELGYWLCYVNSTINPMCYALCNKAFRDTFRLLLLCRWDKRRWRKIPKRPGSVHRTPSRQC
UniProt P08172, whole entry: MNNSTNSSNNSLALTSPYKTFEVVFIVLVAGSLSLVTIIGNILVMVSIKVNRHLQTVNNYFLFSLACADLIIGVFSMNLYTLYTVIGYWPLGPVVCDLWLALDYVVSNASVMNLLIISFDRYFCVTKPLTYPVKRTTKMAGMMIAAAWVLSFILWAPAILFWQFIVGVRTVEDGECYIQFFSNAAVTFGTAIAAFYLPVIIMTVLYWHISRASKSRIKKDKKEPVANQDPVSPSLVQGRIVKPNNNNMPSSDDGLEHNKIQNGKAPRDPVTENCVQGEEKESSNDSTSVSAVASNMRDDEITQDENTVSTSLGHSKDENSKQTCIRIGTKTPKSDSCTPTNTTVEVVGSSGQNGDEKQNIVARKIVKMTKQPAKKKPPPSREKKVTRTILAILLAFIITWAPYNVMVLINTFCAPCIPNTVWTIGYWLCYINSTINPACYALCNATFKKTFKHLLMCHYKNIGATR

Tests used:
[1] = biological target: T1, human M1 receptor (Homo sapiens, UniProt P11229); assay: HTRF IP-One curve shift assay, M1; assay type: cell-based
T1 construct: expressed in transfected cells
Experimental: HTRF IP-One assays were performed using frozen cell aliquots prepared from CHO-K1 cell lines stably expressing human M1, M3, or M5 receptors. Cells were frozen following typical cell freezing protocols. […] Dissociated cells were quenched in full media and collected by centrifugation at 290×g for 5 min. […] 1 mL aliquots of cells were dispensed into cryovial tubes and frozen in a controlled rate cryo-freezer container at −80° C. Cells were stored at −80° C. (or in liquid nitrogen if stored for at least six months) until the day of the assay.
On the day before the assay, frozen cells were rapidly thawed in a 37° C. water bath, brought up in 20 mL of full media, and collected via centrifugation at 290×g for 5 min. […] Next, […] of cells (10,000 cells/well) were dispensed into 384-well coming plates in triplicate. Cells were incubated overnight in a 37° C., 5% CO2 cell incubator.
Then, 2 μL of test compounds were added to the cells and incubated for 10 min at 37° C. in a 5% CO2 cell incubator. Next, 2 μL of diluted agonists serially diluted in assay buffer at 7× final assay concentration was added to assay plates. Finally, assay plates were incubated for two hours at 37° C. in a 5% CO2 cell incubator.
Six μL of IP-1 detection reagents (IP-One Gq HTRF kit, Cisbio Cat #62IPAPEJ) were dispensed to the cells. First, the plates were incubated for two hours at room temperature (IP-One detection reagents were made according to Cisbio protocol). Then, plates were read on an Envision plate reader following the Cisbio guidelines.
(§1) Raw data for all assays was transmitted directly from plate readers into the Beacon database for processing. All assay plates contained positive and negative control wells for data normalization and scaling. […] All control wells contained DMSO at a final assay concentration that matched the test compound wells.
Counts from the standard curve wells were used to generate a sigmoidal standard curve, which was used to transform the raw counts from each well on the plate (scaling control wells and compound wells) into a pmol/well IP1 value.

[2] = biological target: human M2 receptor (Homo sapiens, UniProt P08172); assay: SPA GTP (GTPgS) binding curve shift assay, M2; assay type: biochemical
Experimental: Membranes were prepared for GTPgS binding assays from CHO-K1 cells stably expressing human M2 or human M4 receptors. Cells were grown in 5-layer cell culture flasks. Cells were washed with 50 mL of PBS and then dissociated with 0.05% trypsin. Dissociated cells were then collected by centrifugation at 650×g for 8 min at 4° C. Pellets were rewashed in PBS by centrifugation and resuspended in 30 mL of 20 mM HEPES, 10 mM EDTA, pH 7.4. After sitting on ice for 30 min, membranes were collected by centrifugation at 50000×g for 15 min at 4° C., resuspended in 30 mL of 20 mM HEPES, 0.1 mM EDTA, pH 7.4, and collected again by centrifugation. Pellets were then washed twice by centrifugation in 30 mL of 20 mM HEPES, pH 7.4, and stored at −80° C. until the day of the assay. On the day of the assay, pellets were thawed on ice and resuspended in 1 mL of 20 mM HEPES, pH 7.4, 10 mM MgCl2, and 100 mM NaCl using Dounce homogenization.
According to Promega guidelines, membrane protein concentration was determined by BCA protein assay (Promega, Madison, WI).
On the day of the assay, serial dilutions of test PAM compounds were brought up in assay buffer (20 mM HEPES, 10 mM MgCl2; see Table 4 for NaCl concentrations) at four times the final assay concentration. […] of membrane homogenates (containing […] of membrane protein) were prepared in assay buffer supplemented with GDP at 4× final assay concentration (see Table 4 for GDP concentrations) and dispensed into 96 well polypropylene, U-bottom Greiner plates. Membrane plates were incubated for 10 min at room temperature with gentle shaking. Then, 25 μL of test compounds were added to assay plates. Plates were then incubated, with shaking, for an additional 10-15 min. Then, 25 μL of diluted agonists serially diluted in assay buffer at 4× final assay concentration was added to assay plates. Plates were then incubated, with shaking, for an additional 10-15 min. Next, […] of 0.4 nM ^35S-GTP (Perkin Elmer, Waltham, MA) in assay buffer was added to assay mixtures. The binding reaction was left on the shaker for 1 h at room temperature. Membranes in assay reactions were then transferred to GF/C filter plates (UniFilter, Perkin Elmer) and washed three times using FilterMate Harvester (Perkin Elmer) with cold assay buffer containing no GDP. Filter plates were then dried at 40° C. overnight, and […] of Beta Plate Scintillation liquid was added. Plates were top and bottom sealed before being read on the TopCount scintillation counter (Perkin Elmer, Waltham, MA).
as §1
For GTPgS assays, the negative control wells were defined as 0% response. The highest response in a plate was scaled to 1, representing 100% response. Data from test compound wells was scaled to these controls and are reported as % control values. This was done to allow for subsequent GraphPad cooperativity analysis, setting the maximal response at no more than 1.

[3] = Emraclidine concentration 41.2 nM
[4] = Emraclidine concentration 123 nM
[5] = Emraclidine concentration 370 nM
[6] = Emraclidine concentration 1110 nM
[7] = Emraclidine concentration 3330 nM

For `CCCCCCOc1nsnc1C1=CCCN(C)C1` [xanomeline, reference compound], the Emax ([1]; Emraclidine concentration 0 nM) was 74.7%, the Emax [1, 3] was 79.9% and the Emax [1, 4] was 83.5%. For the same molecule, the Emax at […] [1, 5] was 87.3%, the Emax [1, 6] was 90% and the Emax [1, 7] was 87.9%. For the same molecule, the Emax at […] ([1]; Emraclidine concentration […]) was 75.6%, the “τ (agonist pharmacology)” value ([1]; M4 PAM Emraclidine) was 0.0 and the “τ (agonist pharmacology)” value ([1]; M4 PAM MK-4710) was −0.1. For the same molecule, the Emax ([1]; MK-4710 concentration 0 nM) was 78.2%, the Emax ([1]; MK-4710 concentration 41.2 nM) was 87.8% and the Emax ([1]; MK-4710 concentration 123 nM) was 88.1%. It also gave an Emax at […] ([1]; MK-4710 concentration 370 nM) of 85.9%, an Emax ([1]; MK-4710 concentration 1110 nM) of 81.4% and an Emax ([1]; MK-4710 concentration 3330 nM) of 78.4%. It also gave an Emax at […] ([1]; MK-4710 concentration […]) of 85.6%, an EC50 ([2]; Emraclidine concentration 0 nM) of 41.1 nM and an EC50 [2, 3] of 42.4 nM. The EC50 [2, 4] was 36.4 nM, the EC50 [2, 5] was 24 nM and the EC50 [2, 6] was 33.2 nM. The EC50 [2, 7] was 35.2 nM, the EC50 ([2]; Emraclidine concentration […]) was 24.6 nM and the EC50 ([2]; MK-4710 concentration 0 nM) was 28.5 nM.
